Our source for the inhibition of corepressor binding values is PubChem BioAssay AID602229 (The Scripps Research Institute Molecular Screening Center, 2012).

Protein sequences, listed by entry. Tags and fused reporters are not part of them.
UniProt Q9Y5X4, whole entry: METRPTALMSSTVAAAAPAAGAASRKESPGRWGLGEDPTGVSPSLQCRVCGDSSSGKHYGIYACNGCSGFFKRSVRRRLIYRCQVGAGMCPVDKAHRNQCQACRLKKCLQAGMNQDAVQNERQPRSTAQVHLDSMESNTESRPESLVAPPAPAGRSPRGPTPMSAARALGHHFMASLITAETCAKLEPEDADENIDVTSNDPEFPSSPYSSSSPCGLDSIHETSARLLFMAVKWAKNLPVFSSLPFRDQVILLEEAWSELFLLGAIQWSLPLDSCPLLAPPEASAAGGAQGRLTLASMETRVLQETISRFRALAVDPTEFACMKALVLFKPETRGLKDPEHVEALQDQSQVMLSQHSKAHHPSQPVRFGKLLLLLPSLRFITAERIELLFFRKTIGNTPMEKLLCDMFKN

SMILES strings stand for the structures. The list shows a part of the results, in another mix than the full data. The source made the active and inactive calls.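 The calls were made as follows: active = inhibition above the mean of all tested compounds plus 3 SD (cut at about 70% in these data); inactive = the rest.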

The target of the assay is Photoreceptor-specific nuclear receptor (Homo sapiens) (UniProt Q9Y5X4). The experiment in a line: NR2E3 agonists in two-hybrid cells, primary screen, cell-based, luminescence, CHO-S, Gal4-NCOR/VP16-NR2E3 (AID 602229).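 Also: 0% = DMSO with NR2E3 transfected cells and 100% = cells lacking NR2E3 construct; higher means lower luciferase signal from less NR2E3 corepressor binding.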 The conditions noted are these: luciferase, at 3.98 µM, hits give high values.
Take `CCOP(=O)(Nc1ccc(C)cn1)OCC`: the inhibition of corepressor binding is inactive: -11.5%.
